Measured values: patent US6342368B1, “WD-40-derived peptides and uses thereof” (The Board of Trustees of the Leland Stanford Junior …, priority 1994, dated 2002)

Molecular target: mixture of rat brain PKC isozymes (α, β, γ, δ, ε and ζ) (rat)
Experiment: cell-based or functional assay

Q: Which phosphorylation of histone type IIIs (25 µM) by PKC (10 nM) does the source give for “recombinant RACK1 protein (receptor for activated C-kinase, rat brain) (from UniProt P63245 1-317)” here?
A: 4.5 fold
